Assay: Plasma concentrations of buprenorphine and norbuprenorphine (LC/MS/MS)
Settings: buccal film; Safety Population

## CO[C@]12CC[C@@]3(C[C@@H]1[C@](C)(O)C(C)(C)C)[C@H]1Cc4ccc(O)c5c4[C@@]3(CCN1)[C@H]2O5
  Plasma concentrations following the 450-μg dose compared with the 300-μg dose: higher
